Reference: PubChem BioAssay (EPA / NIEHS)
This is a selection; strong and weak results do not stand in their true shares. Records with an inconclusive call do not appear. Active and inactive are the calls of the source. How the source made its calls, unless noted: active means hit-call score of the fitted dose curve at least 0.9, where 1 is the maximum; inactive means score below 0.9.

By UniProt entry, the sequences of proteins in these tests, tags left out.
UniProt P17676, whole entry: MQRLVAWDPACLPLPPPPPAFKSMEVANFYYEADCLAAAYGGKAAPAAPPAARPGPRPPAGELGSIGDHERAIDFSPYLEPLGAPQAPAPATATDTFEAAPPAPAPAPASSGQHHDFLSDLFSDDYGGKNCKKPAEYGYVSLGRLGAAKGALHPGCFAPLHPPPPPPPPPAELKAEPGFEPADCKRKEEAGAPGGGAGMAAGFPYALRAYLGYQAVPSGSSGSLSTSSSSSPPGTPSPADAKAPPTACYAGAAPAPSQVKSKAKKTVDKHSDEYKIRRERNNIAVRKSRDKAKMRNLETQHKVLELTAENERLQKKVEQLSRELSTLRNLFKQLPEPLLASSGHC
UniProt Q96RI1, whole entry: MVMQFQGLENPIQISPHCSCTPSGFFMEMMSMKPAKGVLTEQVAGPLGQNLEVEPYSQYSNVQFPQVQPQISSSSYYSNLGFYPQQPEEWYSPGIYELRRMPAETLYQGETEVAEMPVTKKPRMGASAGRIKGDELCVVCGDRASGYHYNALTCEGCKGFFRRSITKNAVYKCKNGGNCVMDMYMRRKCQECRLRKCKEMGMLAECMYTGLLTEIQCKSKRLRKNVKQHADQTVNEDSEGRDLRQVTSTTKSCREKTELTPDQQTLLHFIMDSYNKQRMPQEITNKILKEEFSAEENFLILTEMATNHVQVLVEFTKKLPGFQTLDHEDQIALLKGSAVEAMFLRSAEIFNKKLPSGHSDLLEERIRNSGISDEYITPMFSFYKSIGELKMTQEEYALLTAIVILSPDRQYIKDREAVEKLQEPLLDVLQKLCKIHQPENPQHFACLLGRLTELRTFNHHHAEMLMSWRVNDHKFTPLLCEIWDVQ
UniProt Q00613, whole entry: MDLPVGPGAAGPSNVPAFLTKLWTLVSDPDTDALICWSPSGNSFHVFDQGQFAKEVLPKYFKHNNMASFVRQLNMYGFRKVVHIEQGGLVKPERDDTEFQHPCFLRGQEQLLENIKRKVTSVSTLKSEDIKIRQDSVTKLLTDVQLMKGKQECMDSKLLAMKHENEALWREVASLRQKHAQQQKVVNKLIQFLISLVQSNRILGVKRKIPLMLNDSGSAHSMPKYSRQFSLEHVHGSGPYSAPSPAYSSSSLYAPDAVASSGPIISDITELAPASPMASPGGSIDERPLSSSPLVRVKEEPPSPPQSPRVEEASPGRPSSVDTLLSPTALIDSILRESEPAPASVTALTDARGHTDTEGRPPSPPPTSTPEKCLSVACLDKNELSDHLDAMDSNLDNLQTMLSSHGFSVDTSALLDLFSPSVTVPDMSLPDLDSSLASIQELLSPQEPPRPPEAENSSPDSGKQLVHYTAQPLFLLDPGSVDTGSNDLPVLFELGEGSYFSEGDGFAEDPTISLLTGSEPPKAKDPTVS
UniProt P26367, whole entry: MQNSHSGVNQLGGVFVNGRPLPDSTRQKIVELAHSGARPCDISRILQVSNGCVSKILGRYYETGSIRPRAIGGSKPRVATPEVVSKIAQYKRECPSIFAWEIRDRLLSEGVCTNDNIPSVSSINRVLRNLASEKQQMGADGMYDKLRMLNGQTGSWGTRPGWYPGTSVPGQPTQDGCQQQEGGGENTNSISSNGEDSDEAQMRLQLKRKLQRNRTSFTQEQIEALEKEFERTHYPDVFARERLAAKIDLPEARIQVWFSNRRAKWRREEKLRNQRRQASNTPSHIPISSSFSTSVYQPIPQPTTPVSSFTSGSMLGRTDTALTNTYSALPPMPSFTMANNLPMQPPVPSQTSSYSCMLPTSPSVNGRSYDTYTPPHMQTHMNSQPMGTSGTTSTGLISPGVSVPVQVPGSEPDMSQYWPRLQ
UniProt P08684, whole entry: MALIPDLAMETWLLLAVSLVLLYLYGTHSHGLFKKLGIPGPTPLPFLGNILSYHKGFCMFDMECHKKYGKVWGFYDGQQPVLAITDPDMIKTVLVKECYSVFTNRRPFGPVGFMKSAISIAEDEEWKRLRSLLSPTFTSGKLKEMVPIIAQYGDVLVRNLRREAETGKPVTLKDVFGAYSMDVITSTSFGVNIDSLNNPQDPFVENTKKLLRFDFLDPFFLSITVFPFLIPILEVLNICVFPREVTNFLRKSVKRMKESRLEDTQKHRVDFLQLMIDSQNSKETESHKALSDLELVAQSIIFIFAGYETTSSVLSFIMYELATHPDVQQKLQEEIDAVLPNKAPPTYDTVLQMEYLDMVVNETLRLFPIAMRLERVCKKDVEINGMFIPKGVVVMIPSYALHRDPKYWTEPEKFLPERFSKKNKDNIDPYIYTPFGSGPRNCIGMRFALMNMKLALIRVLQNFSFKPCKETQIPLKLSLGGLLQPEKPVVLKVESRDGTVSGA

Key:
[1] = target: CCAAT/enhancer-binding protein beta (Homo sapiens) (UniProt P17676); experiment: ATG_C_EBP_CIS: Attagene CIS-FACTORIAL HepG2 Assay for human CCAAT/Enhancer Binding Protein (C/EBP) beta (AID 2282927); details: HepG2 Attagene cis-factorial transcription factor reporter; actives raise or lower the signal
How it was run: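 HepG2 transiently transfected with multiplexed reporter units under cis-regulatory promoters reporting endogenous C/EBPb activity. After 24 h exposure, reporter mRNA assayed by RT-PCR, fluorescent labelling, HpaI digestion and capillary electrophoresis; bidirectional fitting versus DMSO.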

[2] = ATG_DR4_LXR_CIS: Attagene CIS-FACTORIAL HepG2 Assay for human Liver X Receptor (LXR), DR4 submotif (AID 2282929); details: HepG2 Attagene DR4 cis-reporter, mRNA transcription; actives raise or lower the signal
How it was run: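 HepG2, transient MRTU transfection, cis-element (DR4) promoter; 24 h compound exposure; total RNA → oligo(dT) RT → PCR → 6-FAM primer extension → HpaI cut → CE. Gain/loss vs DMSO, bidirectional fit.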

[3] = ATG_E_Box_CIS: Attagene CIS-FACTORIAL HepG2 Assay for human Enhancer Box (E-box) (AID 2282936); details: HepG2 E-box cis-reporter transcription, actives raise or lower the signal
How it was run: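 First, HepG2 cells receive multiple cis-regulated reporter constructs by transient transfection. Next, chemicals are applied for 24 h. Finally, reporter mRNA is quantified via RT-PCR and capillary electrophoresis, with DMSO as baseline.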

[4] = target: Bile acid receptor (Homo sapiens) (UniProt Q96RI1); experiment: ATG_IR1_CIS: Attagene CIS-FACTORIAL HepG2 Assay for human Nuclear Receptor Subfamily 1 Group H Member 4 (NR1H4), IR1 submotif (AID 2282946); details: IR1 reporter transcription, actives raise or lower the signal
How it was run: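 HepG2 cells transiently transfected with multiple cis-promoter-driven reporter units to measure endogenous transcription factor activity; 24 h exposure. Reporter mRNA read by RT-PCR, FAM labelling, HpaI digestion and capillary electrophoresis. Bidirectional fit versus DMSO.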

[5] = target: Heat shock factor protein 1 (Homo sapiens) (UniProt Q00613); experiment: ATG_HSE_CIS: Attagene CIS-FACTORIAL HepG2 Assay for human Heat Shock Transcription Factor 1 (HSE) (AID 2282953); details: HepG2 HSE cis-reporter, Attagene RNA transcription; actives raise or lower the signal
How it was run: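 HepG2 cells transfected with cis-promoter reporter units sensing endogenous transcription factor activity; reporter mRNA quantified 24 h post-dose by RT-PCR and capillary electrophoresis of 6-FAM-labelled products. Bidirectional fitting against DMSO.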

[6] = target: Paired box protein Pax-6 (Homo sapiens) (UniProt P26367); experiment: ATG_Pax6_CIS: Attagene CIS-FACTORIAL HepG2 Assay for human Paired Box 6 (PAX6) (AID 2282956); details: HepG2 CIS-FACTORIAL PAX6 reporter transcription, RNA readout; actives raise or lower the signal
How it was run: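 After twenty-four hours of chemical exposure, transfected HepG2 cells are harvested for RNA. Cis-promoter reporter transcripts are amplified, fluorescently labelled and sized by capillary electrophoresis, with gain and loss of signal scored against DMSO.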

[7] = ATG_PPRE_CIS: Attagene CIS-FACTORIAL HepG2 Assay for human Peroxisome Proliferator-activated Response Element (PPRE) (AID 2282958); details: HepG2 PPRE cis-element reporter, Attagene transcription factor profiling; actives raise or lower the signal
How it was run: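 HepG2, transient MRTU transfection (cis promoter elements, endogenous TFs). 24 h dosing. RNA → oligo(dT) RT → PCR → 6-FAM primer extension → HpaI digest → CE. Bidirectional fit vs DMSO.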

[8] = ATG_TCF_b_cat_CIS: Attagene CIS-FACTORIAL HepG2 Assay for human T-Cell-Factor with beta-catenin (TCF/b-cat) (AID 2282965); details: HepG2 TCF/beta-catenin cis-reporter transcription, actives raise or lower the signal
How it was run: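 HepG2 cells transiently transfected with cis-promoter-driven multiplexed reporter units; reporter mRNA measured 24 h after dosing by RT-PCR, FAM labelling, HpaI digestion and capillary electrophoresis. Bidirectional fitting relative to DMSO baseline.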

[9] = ATG_NF_kB_CIS: Attagene CIS-FACTORIAL HepG2 Assay for human Nuclear Factor Kappa B (NF-kB) (AID 2282991); details: HepG2 Attagene cis-factorial NF-kB reporter mRNA; actives raise or lower the signal
How it was run: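 Transient MRTU transfection of human HepG2 liver cells → 24 h chemical exposure → total RNA, oligo(dT) RT → PCR, 6-FAM primer extension, HpaI digest 2 h 37 C → CE fragment analysis. Bidirectional fitting, DMSO negative control.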

[10] = ATG_NRF2_ARE_CIS: Attagene CIS-FACTORIAL HepG2 Assay for human Nuclear Factor Erythroid 2 Related Factor 2 (NFR2) response to Antioxidant Response Elements (ARE) (AID 2282992); details: HepG2 Attagene ARE/NRF2 reporter, transcription factor activity; actives raise or lower the signal;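 further: reporter mRNA level measured by RT-PCR and capillary electrophoresis fluorescence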
How it was run: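 Cis-factorial assay: transfected HepG2 reporter library, 24 h dosing, mRNA readout via RT-PCR/CE; DMSO-referenced bidirectional analysis.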

[11] = ATG_AP_1_CIS: Attagene CIS-FACTORIAL HepG2 Assay for human Activator Protein 1 (AP-1) (AID 2282931); details: HepG2 Attagene cis-factorial AP-1 reporter mRNA; actives raise or lower the signal
How it was run: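 Transient MRTU transfection of HepG2 → 24 h chemical treatment → RNA isolation, RT-PCR, 6-FAM labelling, HpaI digest → capillary electrophoresis. Fit: bidirectional, DMSO negative control.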

[12] = ATG_EGR_CIS: Attagene CIS-FACTORIAL HepG2 Assay for human Early Growth Response 1 (EGR1) (AID 2282938); details: HepG2 Attagene CIS-FACTORIAL EGR reporter mRNA; actives raise or lower the signal
How it was run: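 Transient transfection of human HepG2 with multiple cis-regulated reporter units, chemical exposure 24 h, total RNA isolated. Reverse transcription, PCR, fluorescent labelling and capillary electrophoresis quantify reporter transcripts; activity fitted bidirectionally against DMSO.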

[13] = ATG_MRE_CIS: Attagene CIS-FACTORIAL HepG2 Assay for human Metal Responsive Element (MRE) (AID 2282954); details: HepG2 MRE cis-reporter transcription, Attagene multiplex; actives raise or lower the signal
How it was run: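 Fluorescent reporter fragments separated by capillary electrophoresis give mRNA induction for the MRE unit after 24 h treatment of transfected HepG2 cells. Endogenous transcription-factor activity is read; DMSO serves as negative control and baseline.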

[14] = read-out: Human Leukocyte Antigen - DR isotype (HLADR), HLA-DRA (gene 3122); experiment: BSK_3C_HLADR: BioMAP Diversity Plus: 3C Assay for Human Leukocyte Antigen - DR isotype (HLADR) Biomarker Activity (AID 2283019); details: actives raise or lower the signal; primary human endothelial cells (HUVEC)
How it was run: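 HUVEC, 3C stimulation, 24 h post-dose; HLA-DR by ELISA; bidirectional curve fit vs DMSO baseline; gain or loss of signal scored.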

CYP2E1 (gene 1571) = experiment: LTEA_HepaRG_CYP2E1: Life Technologies and Expression Analysis (LTEA) Assay for CYP2E1 using HepaRG (AID 2283485); details: actives raise or lower the signal; mRNA level, 48 h
How it was run: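 HepaRG cells in serum-free induction medium exposed 48 h to test chemicals, 8 half-log concentrations up to 100 uM in 0.5% DMSO, duplicate. CYP2E1 mRNA by qRT-PCR, normalized to ACTB, GAPDH, POLR2A; bidirectional fit versus DMSO.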

[15] = STM_H9_NormalizedViability: Cytotoxicity Assessment at 120 hours in the Stemina devTOX quickPredict H9 human embryonic stem cell (hESC)-based Assay (AID 2283784; active means hit-call score of the fitted dose curve at least 0.9, where 1 is the maximum)
How it was run: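 Undifferentiated H9 hESCs kept pluripotent were exposed to compound, with media and chemical replaced every 24h. CellTiter-Fluor protease-substrate fluorescence was background-corrected and normalized per plate to the 0.1% DMSO vehicle; signal loss indicates reduced viability.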

[16] = ATG_PXRE_CIS: Attagene CIS-FACTORIAL HepG2 Assay for human Pregnane X Receptor Element (PXRE) (AID 2282957); details: HepG2 Attagene CIS-FACTORIAL PXRE reporter, mRNA; actives raise or lower the signal
How it was run: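 Cis-element reporter mRNA in human hepatoma HepG2 cells is measured 24 h post-dosing by RT-PCR, primer-extension labeling and capillary electrophoresis; gain or loss of signal is fitted relative to DMSO.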

[17] = read-out: Cytochrome P450 3A4 (Homo sapiens) (UniProt P08684); experiment: LTEA_HepaRG_CYP3A4: Life Technologies and Expression Analysis (LTEA) Assay for CYP3A4 using HepaRG (AID 2283487); details: actives raise or lower the signal; mRNA level, 48 h
How it was run: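 HepaRG, 48 h exposure, 8-pt CRC from 100 uM (half-log), 0.5% DMSO, duplicates; serum-free induction medium. Readout: CYP3A4 mRNA, qRT-PCR, ACTB/GAPDH/POLR2A normalization. Bidirectional fit vs DMSO.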

[18] = ATG_ERE_CIS: Attagene CIS-FACTORIAL HepG2 Assay for Estrogen Response Element (ERE) (AID 2282940); details: HepG2 ERE cis-reporter, Attagene RNA transcript; actives raise or lower the signal
How it was run: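 HepG2 cells transiently transfected with multiplexed cis-element reporter units, measuring endogenous transcription factor activity; ERE reporter mRNA quantified after 24 h exposure by RT-PCR, fluorescent labelling, HpaI digestion and capillary electrophoresis. Bidirectional change versus DMSO.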

[19] = ATG_CMV_CIS: Attagene CIS-FACTORIAL HepG2 Assay for human CMV (Internal Marker) (AID 2282928); details: HepG2 CMV promoter reporter, transcription factor profiling; actives raise or lower the signal;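 further: endpoint acts as a background internal control marker rather than a target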
How it was run: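 Cell system: HepG2, transiently transfected multiple reporter units under cis promoters. Exposure: 24 h. Detection: RT-PCR, FAM labeling, HpaI digestion, capillary electrophoresis. Analysis: bidirectional, DMSO baseline.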

[20] = read-out: Interferon-gamma inducible Protein 10 (IP10), CXCL10 (gene 3627); experiment: BSK_BE3C_IP10: BioMAP Diversity Plus: BE3C Assay for Interferon-gamma inducible Protein 10 (IP10) Biomarker Activity (AID 2283034); details: actives raise or lower the signal; primary human bronchial epithelial cells
How it was run: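 Human primary bronchial epithelial cells were exposed to chemicals for 24 hours, after which IP-10 levels were measured by ELISA. Data were fitted bidirectionally against DMSO, which served as the negative control and activity baseline.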

Question: With N#CSc1ccc([N+](=O)[O-])cc1[N+](=O)[O-] as the compound, how does the AC50 [1] read?
Answer: active: 15.9 µM

Question: And the AC50 [2]?
Answer: active: 16.8 µM

Question: And the AC50 [3]?
Answer: active: 20.1 µM

Question: What about the AC50 [4] of the same compound?
Answer: active: 20.3 µM

Question: And the AC50 [5]?
Answer: active: 16.5 µM

Question: What about the AC50 [6] of the same compound?
Answer: active: 16.4 µM

Question: And the AC50 [7]?
Answer: active: 17.7 µM

Question: And the AC50 [8]?
Answer: active: 11.1 µM

Question: What about the AC50 [9] of the same compound?
Answer: active: 11.1 µM

Question: And the AC50 [10]?
Answer: active: 16.2 µM

Question: What does the source list for Cc1cccc([N+](=O)[O-])c1[N+](=O)[O-]?
Answer: AC50 [11]: active: 71.5 µM; AC50 [12]: active: 71.5 µM; AC50 [13]: active: 71.5 µM; AC50 [14]: active: 21.9 µM

Question: For Cc1ccc([N+](=O)[O-])cc1[N+](=O)[O-], which AC50 (CYP2E1 (gene 1571)) is on record?
Answer: active: 17.9 µM

Question: Which AC50 [15] does the source give for O=[N+]([O-])c1cccc([N+](=O)[O-])c1 here?
Answer: active: 68.6 µM

Question: With CN(C)CCCl as the compound, how does the AC50 [2] read?
Answer: active: 36.7 µM

Question: With CCCCOP(OCCCC)OCCCC as the compound, how does the AC50 [16] read?
Answer: active: 10.2 µM

Question: For Cc1c([N+](=O)[O-])cccc1[N+](=O)[O-], which AC50 [17] is on record?
Answer: active: 18.2 µM

Question: Which AC50 [18] does the source give for O=[N+]([O-])OCC(CO[N+](=O)[O-])(CO[N+](=O)[O-])CO[N+](=O)[O-] here?
Answer: active: 83.5 µM

Question: Which AC50 [19] does the source give for Cc1ccc([N+](=O)[O-])c([N+](=O)[O-])c1 here?
Answer: active: 49.5 µM

Question: What about the AC50 [20] of the same compound?
Answer: active: 12.5 µM
